The values below are quoted from earlier work in patent US4239778A, “Azaprostanoic acid analogs and their use as inhibitors of platelet aggregation” (priority 1978, dated 1980).

The series concerns cyclooxygenase (bovine seminal vesicles and human platelets). The note with it: bovine seminal vesicles vs human platelets; cited from earlier work.

As for `CC(=O)Oc1ccccc1C(=O)O` [aspirin], the “I50, difference between the two enzyme sources (in words)” value is “do not differ significantly between the two enzyme sources”.
In the case of `COc1ccc2c(c1)c(CC(=O)O)c(C)n2C(=O)c1ccc(Cl)cc1` [indomethacin], the “I50, difference between the two enzyme sources (in words)” value is “do not differ significantly between the two enzyme sources”.
